The values below come from article PMC5554889, “Development of a Potent Inhibitor of the Plasmodium Proteasome with Reduced Mammalian Toxicity” (Journal of Medicinal Chemistry, 2017).

Chains of the proteins cited; added tags and fusions are not shown. Lines headed by an entry give the natural chain unless they say otherwise; changes in a name come on top.
UniProt P20618: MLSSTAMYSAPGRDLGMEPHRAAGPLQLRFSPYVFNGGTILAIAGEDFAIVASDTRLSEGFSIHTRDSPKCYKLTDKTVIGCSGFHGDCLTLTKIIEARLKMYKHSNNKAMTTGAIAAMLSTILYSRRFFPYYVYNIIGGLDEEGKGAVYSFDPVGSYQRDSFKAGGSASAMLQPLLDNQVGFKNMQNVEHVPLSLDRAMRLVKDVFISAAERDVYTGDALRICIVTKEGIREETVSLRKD
UniProt P28074: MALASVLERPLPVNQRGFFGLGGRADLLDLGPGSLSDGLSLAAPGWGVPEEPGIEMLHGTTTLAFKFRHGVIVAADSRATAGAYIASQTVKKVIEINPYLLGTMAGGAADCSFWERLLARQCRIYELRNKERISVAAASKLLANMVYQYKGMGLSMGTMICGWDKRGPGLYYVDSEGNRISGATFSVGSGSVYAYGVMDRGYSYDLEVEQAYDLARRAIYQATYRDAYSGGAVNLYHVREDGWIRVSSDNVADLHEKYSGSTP
UniProt A0A5K1K7U1, entry or part of it: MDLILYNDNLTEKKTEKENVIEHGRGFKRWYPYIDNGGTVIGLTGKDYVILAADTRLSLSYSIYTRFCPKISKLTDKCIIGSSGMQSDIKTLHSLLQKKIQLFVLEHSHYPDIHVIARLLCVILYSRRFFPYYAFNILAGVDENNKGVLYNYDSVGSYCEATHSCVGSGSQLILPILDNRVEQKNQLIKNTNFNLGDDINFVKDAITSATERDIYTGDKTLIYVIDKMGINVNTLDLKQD
UniProt Q8IJT1, entry or part of it: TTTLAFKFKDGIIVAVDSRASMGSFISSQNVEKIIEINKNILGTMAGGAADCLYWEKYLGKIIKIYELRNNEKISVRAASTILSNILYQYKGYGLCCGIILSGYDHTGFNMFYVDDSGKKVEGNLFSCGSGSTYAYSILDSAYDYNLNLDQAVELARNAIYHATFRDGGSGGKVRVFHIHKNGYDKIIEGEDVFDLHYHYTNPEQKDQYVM

Series [1] addresses T1, c20S (Homo sapiens, UniProt P20618+P28074).
T1 construct: purchased Boston Biochem
Put plainly: Inactivation kinetics, c20S (200 μM Suc-LLVY-AMC). It is filed as biochemical. As to conditions: kinact/Ki. Here is the method:
(§1) To calculate inhibition constants, activity assays were performed as described above except using 200 μM Suc-LLVY-AMC substrate. The rate of AMC release was calculated in the presence of serial dilution of each inhibitor. The rate of product formation was calculated at 30 min intervals for 4 h and normalized to activity DMSO control to calculate inactivation curves. Kobs values for each inhibitor concentration were calculated from inactivation curves, and inhibition constants KI and kinact were calculated by nonlinear regression of Kobs and inhibitor concentration using GraphPad Prism 6 software.

Series [2] concerns the target Pf20S (Plasmodium falciparum, UniProt A0A5K1K7U1+Q8IJT1). Put plainly: Inactivation kinetics, Pf20S (200 μM Suc-LLVY-AMC). It is filed as biochemical. On the procedure:
as §1

For series [3], the system named is HepG2 cells. Put plainly: HepG2 cytotoxicity assay. The class given is cell-based, human. Particulars: D-amino acid at P3; comparator not given.

Regarding `CCCCCC(=O)N[C@H](C(=O)N[C@@H](CCCC)C(=O)N[C@@H](CC(C)C)C(=O)[C@@]1(C)CO1)C(C)C` [analog 1], the “fold loss in potency to c20S” value in series [1] (relative to carmaphycin B) stood at 3 fold. For the same compound, the kinact in series [2] turned out to be 0.00176 s⁻¹.
On to `CCCCCC(=O)N[C@@H](C(=O)N[C@@H](CCCC)C(=O)N[C@@H](CC(C)C)C(=O)[C@@]1(C)CO1)C(C)C` [analog 18], for which the fold reduced toxicity result in series [3] is reported as “up to 100 fold”. The “fold loss in potency to the human c20S proteasome” value in series [1] (relative to analog 1) amounted to 100 fold. For the same compound, the inactivation rate constant (kinact) in series [2] came to 5.88e-05 s⁻¹.
